The record followed here is PubChem BioAssay AID620 (Sanford-Burnham Center for Chemical Genomics, 2007).

The entries are a selection whose mix differs from that of the whole data set. Some tests of the compounds listed are not included; inactive here does not mean inactive elsewhere. Activity calls are given as the source filed them. Rule as the data show it: active = cytotoxicity above about 50%; inactive = the rest.

The nature of the test: HT1080 cell viability loss – fluorescence readout (AID 620).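 Also: cells exposed to compound overnight then 4 h with Alamar Blue; 0% = vehicle DMSO and 100% = killing control.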 To be noted: at 10 µM, hits give high values.
For the compound `CN(C)c1cccc(C(=O)NCC2(N(C)C)CCCCC2)c1`, the cytotoxicity was inactive: -1.5%.
As for `O=C(OC1CN2CCC1CC2)C(CO)(c1ccccc1)c1ccccc1` (configuration not stated), the figure is inactive: -7.7%.
